Assay results reported in patent US20110039779A1, “IGF-1R BINDING PROTEINS AND ANTAGONISTS” (priority 2007, published 2011).

The chains behind the UniProt entries cited, without tags or fusion partners. Residues count along the entry.
UniProt P08069, 31-1367 limits assumed: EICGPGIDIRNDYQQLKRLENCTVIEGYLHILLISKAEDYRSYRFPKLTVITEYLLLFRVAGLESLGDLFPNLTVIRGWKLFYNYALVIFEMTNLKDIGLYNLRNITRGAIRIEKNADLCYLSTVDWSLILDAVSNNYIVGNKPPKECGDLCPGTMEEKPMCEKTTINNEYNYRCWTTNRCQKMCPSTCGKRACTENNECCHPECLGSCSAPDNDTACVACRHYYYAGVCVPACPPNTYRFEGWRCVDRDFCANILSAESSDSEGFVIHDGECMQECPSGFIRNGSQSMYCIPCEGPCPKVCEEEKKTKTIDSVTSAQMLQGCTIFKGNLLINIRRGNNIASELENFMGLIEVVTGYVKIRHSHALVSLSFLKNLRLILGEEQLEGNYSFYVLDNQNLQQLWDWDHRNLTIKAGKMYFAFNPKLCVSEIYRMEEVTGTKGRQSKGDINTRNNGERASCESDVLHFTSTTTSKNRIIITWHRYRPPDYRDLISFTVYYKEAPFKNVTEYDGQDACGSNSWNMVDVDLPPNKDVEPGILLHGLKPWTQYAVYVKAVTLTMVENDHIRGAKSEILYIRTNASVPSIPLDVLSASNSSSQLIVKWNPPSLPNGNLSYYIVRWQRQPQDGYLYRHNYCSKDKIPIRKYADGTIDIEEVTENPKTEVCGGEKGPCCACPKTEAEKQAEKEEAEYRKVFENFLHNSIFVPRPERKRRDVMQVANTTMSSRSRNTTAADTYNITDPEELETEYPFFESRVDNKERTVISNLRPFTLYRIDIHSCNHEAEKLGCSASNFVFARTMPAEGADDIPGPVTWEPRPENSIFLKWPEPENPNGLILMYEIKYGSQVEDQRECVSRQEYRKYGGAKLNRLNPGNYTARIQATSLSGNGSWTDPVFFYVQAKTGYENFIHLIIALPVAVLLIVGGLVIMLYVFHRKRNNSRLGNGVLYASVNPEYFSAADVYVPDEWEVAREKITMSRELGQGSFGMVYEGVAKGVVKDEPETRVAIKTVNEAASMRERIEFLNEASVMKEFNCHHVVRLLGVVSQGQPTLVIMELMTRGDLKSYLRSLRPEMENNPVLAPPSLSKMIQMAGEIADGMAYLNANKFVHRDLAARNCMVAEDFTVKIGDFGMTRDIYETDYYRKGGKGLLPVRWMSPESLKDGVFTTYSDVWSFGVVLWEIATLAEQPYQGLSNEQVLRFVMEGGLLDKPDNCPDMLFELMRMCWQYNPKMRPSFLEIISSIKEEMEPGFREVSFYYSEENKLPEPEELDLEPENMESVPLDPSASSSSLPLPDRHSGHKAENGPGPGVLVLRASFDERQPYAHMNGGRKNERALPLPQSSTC
UniProt P08069, 31-935: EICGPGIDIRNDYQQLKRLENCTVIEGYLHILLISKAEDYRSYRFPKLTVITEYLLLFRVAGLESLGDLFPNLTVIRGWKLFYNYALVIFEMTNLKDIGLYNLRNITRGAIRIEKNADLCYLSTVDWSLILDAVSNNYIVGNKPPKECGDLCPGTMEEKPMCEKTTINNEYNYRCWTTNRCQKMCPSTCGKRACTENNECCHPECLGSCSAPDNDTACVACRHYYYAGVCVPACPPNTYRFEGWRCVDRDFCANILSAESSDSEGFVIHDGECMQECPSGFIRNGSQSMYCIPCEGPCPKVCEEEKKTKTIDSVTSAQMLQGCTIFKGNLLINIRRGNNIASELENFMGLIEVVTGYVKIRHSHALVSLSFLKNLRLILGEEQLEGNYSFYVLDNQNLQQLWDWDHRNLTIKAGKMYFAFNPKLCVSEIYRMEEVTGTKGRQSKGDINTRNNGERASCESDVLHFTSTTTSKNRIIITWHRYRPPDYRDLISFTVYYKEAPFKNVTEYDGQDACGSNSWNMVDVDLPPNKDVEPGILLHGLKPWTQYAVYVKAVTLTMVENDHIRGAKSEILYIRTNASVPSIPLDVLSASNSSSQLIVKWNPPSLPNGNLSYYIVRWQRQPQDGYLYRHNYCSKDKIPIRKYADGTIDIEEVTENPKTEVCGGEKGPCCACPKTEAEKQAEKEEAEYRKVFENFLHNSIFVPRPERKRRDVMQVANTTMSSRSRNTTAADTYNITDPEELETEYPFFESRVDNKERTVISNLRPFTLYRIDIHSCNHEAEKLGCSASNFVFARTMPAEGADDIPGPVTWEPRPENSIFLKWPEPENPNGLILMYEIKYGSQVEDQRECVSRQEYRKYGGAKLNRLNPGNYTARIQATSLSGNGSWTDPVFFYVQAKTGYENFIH

Assays:
[1] = biological target: Human IGF-1R (HIGF-1R), purified from BHK cells stably transfected with IGF-1R cDNA (human) (UniProt P08069); test: competition with 125I-IGF-1 on purified HIGF-1R (IGF-1 displacement)
[2] = biological target: His-tagged soluble recombinant human IGF-IR (srhIGF-1R-his; R&D systems) (human) (UniProt P08069); test: AlphaScreen competition with biotinylated hIGF-1 on srhIGF-1R-his
[3] = biological target: human insulin-like growth factor-1 receptor (HIGF-1R) (human) (UniProt P08069); test: 125I-IGF-1 displacement, SPA-assay
[4] = biological target: His-tagged soluble recombinant human IGF-IR (srhIGF-1R-his; R&D systems) (human), P08069; test: AlphaScreen competition with biotinylated hIGF-1 on srhIGF-1R-his

IC50 [1]	IC50 [2]	Kd [3]	IC50 [4]	Binder
51 nM	8.7 nM	51 nM	–	SFYSCLESLVNAPAEKSRGQWEGCRK ('a' at position 12 (SFYSCLESLVNaPAEK...) is D-Ala) [F297]
–	–	–	560 nM	SFYSCLESLVNGGAERSDGQWEGCR (modifications not checked) [F113]
